Cneo AK release: causes C. neoformans cell lysis; AID 651654; hit rate 0.2% among 360,000; lysis activity, % at 15 µM; adenylate kinase release luminescence, 4 h; normalised: neutral wells 0, clomiphene wells 100;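 active = mean lysis activity across replicates of at least 80%, whatever share of replicates individually reach that level; inactive = mean lysis activity below 80%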
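Assay system: C. neoformans cells. Amount: yeast cell density of 5 × 10^6 cells/mL. Technique: AK luminescence. Buffer or medium: YPD. Times: static 4 h at 37 °C with compound, 1 h detection. Dosing: single-point compound dose. Read-out: lysis from increased AK signal.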
C2C12 statin: suppression of simvastatin myotoxicity. C2C12 myotubes + simvastatin, ATP luminescence, 48 h; scaled: DMSO 0, geranylgeraniol control 100. rescue of ATP level, % at 7.49 µM. hit rate 0.78% among 330,000;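 active = mean ATP rescue above about 67%, or every replicate alone reaching that limit, limit read from the data, passing the limit was not always enough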;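 also: myotubes were challenged with 10 µM simvastatin during compound exposure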
Yeast UUG start-1: modulators of start codon recognition fidelity in yeast; S. cerevisiae UUG-firefly luciferase reporter, luminescence/redox ratio; AID 602363; 350,000 tested, 0.13% active; activity score, % at 18.7 µM;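 active = replicate mean at a twofold rise or more, about +100% in these data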;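 also: firefly luciferase made from a UUG start codon reports start codon fidelity; reporter light over untreated wells divided by growth signal over untreated wells; some hits fall short of that in this replicate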
miR122 inh: blocks miR-122 activity in Huh7 sensor cells; Huh7 miR-122 Renilla luciferase sensor, 48 h; neutral wells = 0, positive control = 100; activation (reporter increase), % at 12.5 µM; hit rate 0.3% among 340,000; AID 602342;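 active = mean replicate activation score at least 90 and every replicate individually at or above 90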;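 also: higher luciferase means less miR-122 activity so hits act as miR-122 inhibitors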
Yeast UUG start-2: yeast start codon fidelity modulation; shares compounds with Yeast UUG start-1; S. cerevisiae UUG-start firefly luciferase, luminescence, 4 h; 100% means double the DMSO signal; activation, % at 38 µM; 540 tested, under 10 active; AID 652061;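 active = signal increase whose fitted curve reaches an absolute level of 40 at a concentration under 10 µM; inactive = activity opposite to the expected increase, or the rest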
Active calls of the source: *; i = inactive; x = no result; [ ] = dose if it differs, or a comment. The list is not random: actives were taken first. Their share in the collection is about 1.2%.

SMILES	Cneo AK release	C2C12 statin	Yeast UUG start-1	miR122 inh	Yeast UUG start-2
CCOC(=O)C1CCN(C(=O)Cn2cc(C(=O)C3CC3)c3ccccc32)CC1	8	1	-9	-2	11
O=C(O)Cn1cc(C(=O)C2CC2)c2ccccc21	-2	-2	-5	0	x
O=C(c1cn(CC(=O)N2CCCCC2)c2ccccc12)C1CC1	-2	1	-15	4	3
O=C(Cn1cc(C(=O)C2CC2)c2ccccc21)NC1CCCC1	-7	-1	6	2	8
C[C@H](NC(=O)C[C@H]1CC[C@@H]2[C@H](COC[C@H](O)CN2C)O1)c1ccccc1	3	3	-12	5[16.7 µM]	x
O=C(C[C@@H]1CC[C@@H](NC(=O)Cc2ccccn2)[C@H](CO)O1)NCCc1ccncc1	x	10	x	-8[16.7 µM]	x
COc1ccc(CN2CCN(C(=O)c3cccc4ccccc34)CC2)c(OC)c1OC	3	13	146*	3	-1
O=C1c2ccccc2[C@@]2(Cc3ccccc3N(CCN3CCOCC3)C2=O)[C@H](c2ccc(CO)cc2)N1Cc1ccccc1Cl	-2	x	55	x	x
CN(C)CCCN1C(=O)[C@@]2(Cc3ccccc31)c1ccccc1C(=O)N(Cc1ccccc1Cl)[C@H]2c1ccc(CO)cc1	-19	x	202*	x	i
COc1ccccc1CN1C(=O)c2ccccc2[C@@]2(Cc3ccccc3N(CCN3CCOCC3)C2=O)[C@@H]1c1ccc(CO)cc1	20	x	130*	x	i

2 of the compounds above, as comma-separated lines.
Structure,Cneo AK release,C2C12 statin,Yeast UUG start-1,miR122 inh,Yeast UUG start-2
O=C(c1cn(CC(=O)N2CCCCC2)c2ccccc12)C1CC1,-2,1,-15,4,3
O=C(Cn1cc(C(=O)C2CC2)c2ccccc21)NC1CCCC1,-7,-1,6,2,8

Record cards (already shown). Values in the order: Cneo AK release | C2C12 statin | Yeast UUG start-1 | miR122 inh | Yeast UUG start-2
CCOC(=O)C1CCN(C(=O)Cn2cc(C(=O)C3CC3)c3ccccc32)CC1 is listed as 8 | 1 | -9 | -2 | 11
COc1ccc(CN2CCN(C(=O)c3cccc4ccccc34)CC2)c(OC)c1OC is listed as 3 | 13 | 146* | 3 | -1

The results go on.
SMILES	Cneo AK release	C2C12 statin	Yeast UUG start-1	miR122 inh	Yeast UUG start-2
Cc1ccc(S(=O)(=O)N(C)C[C@H]2Oc3ncc(Br)cc3C(=O)N([C@@H](C)CO)C[C@H]2C)cc1	39	-3	108*	0[16.7 µM]	i
Cc1ccc(S(=O)(=O)N(C)C[C@@H]2Oc3ncc(-c4ccncc4)cc3C(=O)N([C@@H](C)CO)C[C@H]2C)cc1	-6	-6	200*	-6[16.7 µM]	i
CCCNC(=O)N(C)C[C@@H]1Oc2ncc(-c3ccc(C(=O)N(C)C)cc3)cc2C(=O)N([C@@H](C)CO)C[C@H]1C	16	x	104*	1[16.7 µM]	i
COc1ccc(-c2cnc3c(c2)C(=O)N([C@@H](C)CO)C[C@H](C)[C@@H](CN(C)C(=O)NC2CCCC2)O3)cc1	-4	-10	140*	2[16.7 µM]	i
COc1ccccc1-c1cnc2c(c1)C(=O)N([C@@H](C)CO)C[C@H](C)[C@@H](CN(C)C(=O)c1cccnc1)O2	2	2	172*	-5[16.7 µM]	i
C[C@H](CO)N1C[C@H](C)[C@@H](CN(C)CC2CCOCC2)Oc2ncc(-c3cccc(F)c3)cc2C1=O	x	11	157*	-2[16.7 µM]	i
C[C@H]1CN([C@@H](C)CO)C(=O)Cc2cc(N(C)C)ccc2O[C@H]1CN(C)C(=O)Nc1cccc2ccccc12	-4	24	4	-7[16.7 µM]	x
COc1cccc(Oc2nc3ncn(Cc4ccccc4)c3c(=O)n2C)c1	1	1	113*	0	13
COc1cccc(Cn2c(Oc3ccccc3)nc3c2c(=O)n(C)c(=O)n3C)c1	4	15	-12	-8	x
N#Cc1ccccc1OCc1cn(CC(=O)c2ccc(O)cc2)nn1	-3	-5	152*	3	11
COCC#Cc1cnc2c(c1)C(=O)N([C@H](C)CO)C[C@@H](C)[C@H](CN(C)C(=O)CN1CCOCC1)O2	0	-13	11	1[16.7 µM]	x
COCCNc1nnc(SCC(=O)c2ccc3c(c2)OCO3)s1	1	-3	474*	1	1
O=C(CSc1nnc(SCc2ccc(Cl)cc2)s1)c1ccc2c(c1)OCO2	7	x	-3	-20	x
COc1cc(C(=O)N2CCCc3ccccc32)cc(OC)c1OC	0	-33	-12	2	x
COc1ccc(C(=O)N2CCCc3ccccc32)cc1OC	2	-1	active	2	-7
C=CCN1C(=O)C2C(C(=O)NCc3ccccc3)C3C=CC2(O3)C1C(=O)NC(C)(C)C (centres undefined)	1	-1	533*	-4	-6
N#C[C@H]1N[C@H](CO)[C@@H]1c1ccc(C2=CCCCC2)cc1	-2	3	x	x	x
C[C@@H]1CCCCO[C@H](CN(C)S(=O)(=O)c2ccc(Cl)cc2)[C@@H](C)CN([C@@H](C)CO)C(=O)c2cc(NC(=O)CCC(F)(F)F)ccc2O1	6	x	6	-9[16.7 µM]	x
Cc1cccc(NC(=O)CSc2nnc([C@H](C)NC(=O)OC(C)(C)C)o2)c1C	-1	2	-9	-1	x
Cc1ccc(NC(=O)CSc2nnc([C@H](C)NC(=O)OC(C)(C)C)o2)c(C)c1	2	x	214*	-10	3

Assay outcomes as filed in PubChem.
